Laboratory results reported in patent US10385070B2, “Chroman-spirocyclic piperidine amides as modulators of ion channels” (VERTEX PHARMACEUTICALS INCORPORATED, priority 2011, dated 2019).

Sequences of proteins named here, by UniProt entry; tags and fusion partners are left off.
UniProt Q15858, whole entry: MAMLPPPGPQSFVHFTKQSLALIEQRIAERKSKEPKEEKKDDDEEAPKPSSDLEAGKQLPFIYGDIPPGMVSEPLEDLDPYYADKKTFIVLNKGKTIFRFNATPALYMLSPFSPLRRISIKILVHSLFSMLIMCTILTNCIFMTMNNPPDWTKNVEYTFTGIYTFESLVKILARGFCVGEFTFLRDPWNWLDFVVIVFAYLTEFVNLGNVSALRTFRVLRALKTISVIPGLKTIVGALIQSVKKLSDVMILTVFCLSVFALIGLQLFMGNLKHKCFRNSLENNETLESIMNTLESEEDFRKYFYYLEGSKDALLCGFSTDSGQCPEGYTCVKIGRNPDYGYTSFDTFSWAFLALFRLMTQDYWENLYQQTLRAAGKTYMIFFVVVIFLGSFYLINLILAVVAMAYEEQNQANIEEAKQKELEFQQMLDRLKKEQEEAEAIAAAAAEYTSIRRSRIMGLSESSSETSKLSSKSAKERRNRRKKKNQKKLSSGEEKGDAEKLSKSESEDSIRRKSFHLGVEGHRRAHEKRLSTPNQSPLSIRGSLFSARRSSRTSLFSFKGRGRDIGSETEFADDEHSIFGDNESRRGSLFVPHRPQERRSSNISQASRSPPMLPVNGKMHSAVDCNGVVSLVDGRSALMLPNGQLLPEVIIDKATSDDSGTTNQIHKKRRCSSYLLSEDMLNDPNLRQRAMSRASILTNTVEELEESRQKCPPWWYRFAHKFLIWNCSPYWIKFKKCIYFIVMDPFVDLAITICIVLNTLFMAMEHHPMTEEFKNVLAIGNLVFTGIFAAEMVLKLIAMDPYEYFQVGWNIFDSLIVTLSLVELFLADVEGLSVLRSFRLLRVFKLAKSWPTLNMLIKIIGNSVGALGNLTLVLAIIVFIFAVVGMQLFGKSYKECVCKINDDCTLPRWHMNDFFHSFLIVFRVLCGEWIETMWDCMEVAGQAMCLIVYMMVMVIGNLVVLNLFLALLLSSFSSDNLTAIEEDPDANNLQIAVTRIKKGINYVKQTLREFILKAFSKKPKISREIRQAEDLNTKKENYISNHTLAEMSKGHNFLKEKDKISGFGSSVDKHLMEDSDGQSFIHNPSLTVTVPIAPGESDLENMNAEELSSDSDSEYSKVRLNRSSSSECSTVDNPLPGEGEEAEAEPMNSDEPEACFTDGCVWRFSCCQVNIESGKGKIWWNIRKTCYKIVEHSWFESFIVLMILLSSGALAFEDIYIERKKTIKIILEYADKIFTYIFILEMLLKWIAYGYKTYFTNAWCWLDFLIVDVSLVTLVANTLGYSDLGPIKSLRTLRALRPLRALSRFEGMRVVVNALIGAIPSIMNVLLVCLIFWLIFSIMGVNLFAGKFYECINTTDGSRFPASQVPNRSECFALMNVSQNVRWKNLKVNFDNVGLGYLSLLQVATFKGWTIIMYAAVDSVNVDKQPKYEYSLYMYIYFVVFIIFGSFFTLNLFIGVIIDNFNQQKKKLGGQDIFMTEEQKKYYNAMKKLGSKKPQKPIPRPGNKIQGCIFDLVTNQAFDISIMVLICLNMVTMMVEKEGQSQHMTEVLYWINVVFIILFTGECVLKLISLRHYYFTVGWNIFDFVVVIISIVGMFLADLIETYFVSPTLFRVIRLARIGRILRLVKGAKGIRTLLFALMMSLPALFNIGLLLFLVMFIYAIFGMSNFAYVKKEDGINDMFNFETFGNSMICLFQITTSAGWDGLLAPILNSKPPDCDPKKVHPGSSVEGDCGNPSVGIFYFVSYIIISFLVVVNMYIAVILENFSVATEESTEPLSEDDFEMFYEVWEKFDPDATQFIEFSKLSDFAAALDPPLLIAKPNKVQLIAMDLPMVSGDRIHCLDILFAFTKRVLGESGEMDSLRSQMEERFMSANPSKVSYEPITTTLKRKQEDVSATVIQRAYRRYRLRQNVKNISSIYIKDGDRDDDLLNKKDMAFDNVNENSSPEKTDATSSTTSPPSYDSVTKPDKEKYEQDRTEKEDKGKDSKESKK

Molecular target: human NaV subtype, like NaV 1.7 (Homo sapiens, UniProt Q15858)
Assay: E-VIPR optical membrane potential assay with electrical stimulation
Format: cell-based
Settings: read-out: IC50 Binned Activity Data; active against one or more sodium channels; assay and NaV subtype not specified for Table 3
Source text: Assays for Detecting and Measuring NaV Inhibition Properties of Compound E-VIPR Optical Membrane Potential Assay Method with Electrical Stimulation
Sodium channels are voltage-dependent proteins that can be activated by inducing membrane voltage changes by applying electric fields. The electrical stimulation instrument and methods of use are described in Ion Channel Assay Methods PCT/US01/21652, herein incorporated by reference and are referred to as E-VIPR. The instrument comprises a microtiter plate handler, an optical system for exciting the coumarin dye while simultaneously recording the coumarin and oxonol emissions, a waveform generator, a current- or voltage-controlled amplifier, and a device for inserting electrodes in well. Under integrated computer control, this instrument passes user-programmed electrical stimulus protocols to cells within the wells of the microtiter plate.
24 hours before the assay on E-VIPR, HEK cells expressing human NaV subtype, like NaV 1.7, are seeded in 384-well poly-lysine coated plates at 15,000-20,000 cells per well. Other subtypes are performed in an analogous mode in a cell line expressing the NaV of interest. […]
7) Read Plate on E-VIPR. […]

| Structure (SMILES) | IC50 |
| --- | --- |
| CCO[C@@H]1CC2(CCN(C(=O)c3ccc(S(=O)(=O)C(C)C)c(C#N)c3)CC2)Oc2ccc(F)cc21 | 2000 to 5000 nM |
| CCS(=O)(=O)c1ccc(C(=O)N2CCC3(CC2)C[C@@H](OC(C)C)c2cc(F)ccc2O3)cc1 | < 2000 nM |
